# BindingDB's records for US9403767
# By UniProt entry, the sequences of proteins in these tests, tags left out.
# UniProt P35372, whole entry: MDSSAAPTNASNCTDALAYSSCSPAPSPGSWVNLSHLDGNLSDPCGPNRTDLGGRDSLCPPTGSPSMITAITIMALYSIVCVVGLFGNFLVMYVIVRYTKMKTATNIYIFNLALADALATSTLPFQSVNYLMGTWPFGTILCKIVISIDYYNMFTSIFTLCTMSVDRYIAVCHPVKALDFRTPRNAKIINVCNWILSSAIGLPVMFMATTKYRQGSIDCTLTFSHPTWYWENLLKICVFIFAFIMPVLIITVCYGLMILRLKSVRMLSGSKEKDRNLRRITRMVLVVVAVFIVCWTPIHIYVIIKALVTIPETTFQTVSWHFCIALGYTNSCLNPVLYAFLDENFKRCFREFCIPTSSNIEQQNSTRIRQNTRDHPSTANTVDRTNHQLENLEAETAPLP
# Target: Mu-type opioid receptor (Homo sapiens, UniProt P35372)
# Assay: ASSAY_NAME: Binding Assay DESCRIPTION: The affinity to the human μ-opiate receptor was determined in a homogeneous preparation in microtiter plates. For this, dilution series of the respective compound to be tested were incubated for 90 minutes at room temperature with a receptor membrane preparation (15-40 mg of protein per 250 μl of incubation batch) of CHO-K 1 cells, which express the hum
smiles,measurement,value
COc1ccc(C2(N(C)C)CCC(c3ccccc3)(N(C)C)CC2)cc1 (stereo unspecified),Ki,670 nM
